This note sets out measurements from patent publication US8586620B2, “Substituted indole compounds having NOS inhibitory activity” (NeurAxon, Inc., priority 2005, dated 2013).

SMILES strings stand for the structures.

The experiment concerns the target human endothelial constitutive NOS (eNOS) (Homo sapiens (Human), UniProt P29474). Description: Human eNOS enzyme assay, radiometric.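 Further: recombinant human eNOS expressed in baculovirus-infected Sf9 cells, activity read as [3H]L-arginine turned into [3H]L-citrulline, the product isolated on ion-exchange resin.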 Particulars: read-out: eNOSh.

As to `N=C(Nc1ccc2[nH]cc(C3=CN4CCC3CC4)c2c1)c1cccs1` [Compound 125, N-(3-(1-azabicyclo[2.2.2]oct-2-en-3-yl)-1H-indol-5-yl)thiophene-2-carboximidamide], the IC50 stood at 105 µM.
